# In patent US20030091998A1, “Association of beta2-adrenergic receptor haplotypes with drug response” (priority 2000, published 2003):
# Test system: asthma patients
# Assay: In vivo FEV1 (bronchodilator) response to albuterol in asthma patients, by β2AR haplotype pair
# Set-up: species or system human
# Conditions: Caucasian asthma patients with β2AR haplotype pair 4/6; spirometry before and 30 min after inhalation of 180 μg albuterol by nebulization
# Method: The patients in the asthma cohort were enrolled from an outpatient facility as described in detail elsewhere (Yan, L., Galinsky, R. E., Bernstein, J. A., Liggett, S. B. & Weinshilboum, R. M. (1999) Pharmacogenetics in Press). […] Forced expiratory volume in 1 second (FEV1) and forced vital capacity (FVC) were determined in triplicate. The predicted values for these measurements were calculated based on standard algorithms (Morris, J. F., Koski, A. & Johnson, L. C. (1971) Am Rev Respir Dis 103, 57-67).
# The association between changes in % predicted FEV1 and haplotype pair was assessed by fitting an analysis of covariance model (ANCOVA) with terms for haplotype pair, sex and baseline severity. P-values from pairwise comparisons by haplotype pair were adjusted for multiple comparisons by applying the Holm-Sidak step-down procedure (Ludbrook, J. (1998) Clin and Exp Pharmacology & Physiology 25, 1032-1037.). […] In addition, the African-American asthma patients were excluded from the analysis due to the low number of individuals in this population group. […]
# Pairwise tests were made while correcting for multiple comparisons. […] Since 0, 1 or 2 copies of these two haplotypes are present in our population as haplotype pairs 2/2, 2/4 and 4/4, a potential gene dose effect can be assessed by regression analysis.
smiles,measurement,value
CC(C)(C)NCC(O)c1ccc(O)c(CO)c1 (stereo not shown) [albuterol],change % FEV1 (change in % predicted FEV1),19.1±2.79%
